Laboratory results from patent US20230151110A1 (HUTCHISON MEDIPHARMA, published 2023).

By UniProt entry, the sequences of proteins in these tests, tags left out. Residues count along the entry.
UniProt Q08722, 19-139 limits assumed: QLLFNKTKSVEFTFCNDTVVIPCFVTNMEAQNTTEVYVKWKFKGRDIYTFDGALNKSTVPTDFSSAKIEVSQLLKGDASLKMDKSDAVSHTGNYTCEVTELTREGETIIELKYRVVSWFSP

Assays:
[1] = target: recombinant protein hCD47-Fc containing the extracellular domain of human CD47 fused with the Fc fragment of human IgG (human) (UniProt Q08722); test: competition ELISA: hCD47-Fc coated, SIRPα-His 2.5 µg/ml as competitor ligand, anti-His-HRP
[2] = target: human CD47-His fusion protein (human) (UniProt Q08722); test: SPR (Biacore T200): antibody captured by anti-human Fc on CM5, human CD47-His as analyte, 1:1 Langmuir fit

Substance control antibody Hu5F9 has an IC50 [1] of 1.55 nM and a Kd [2] of 2.01 nM.
